# Apparent affinities of Ab-14 variants for a coronavirus HR2 peptide

Binding partner: SARS-CoV-2 spike HR2 peptide, sequence PDVDLGDISGINAS.

Parent: Ab-14, a human scFv built as VH, a (GGGGS)3 linker, VL. Only the CDRs of the heavy chain vary.
VH: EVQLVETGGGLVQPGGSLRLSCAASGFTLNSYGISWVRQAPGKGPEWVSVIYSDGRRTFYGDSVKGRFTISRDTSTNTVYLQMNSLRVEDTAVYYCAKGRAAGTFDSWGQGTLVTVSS
VL: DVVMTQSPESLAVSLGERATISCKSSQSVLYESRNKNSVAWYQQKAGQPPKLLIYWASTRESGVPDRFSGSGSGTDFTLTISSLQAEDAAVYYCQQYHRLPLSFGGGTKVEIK

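Designed CDR sequences, proposed from the first random library and measured here. Their group label is 14H_Rand (Rand: our label for a block that the file lists under HC and that is probably the random mutants of the ten best first-round binders). The assay is AlphaSeq: two haploid yeast populations carry antibody and antigen on their surface. Binding brings cells together so that they mate, and sequencing counts the barcode pairs among the diploids. A regression on co-assayed BCL2-family reference pairs converts the normalised counts of each replicate to an apparent Kd. Mating was done six times.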

Each variant is given by its three heavy chain CDRs, as the data file delimits them; those of the parent are GFTLNSYGIS, VIYSDGRRTFYGDSVK, GRAAGTFDS.
Values are log10 of the apparent Kd in nM; lower means stronger binding.
Where no diploid with the target was found in that replicate, the entry reads "nd": below detection, most likely a poor binder, though not proof of it.

CDR-H1	CDR-H2	CDR-H3	log10 Kd (nM) by replicate	signal with controls
GFTLNDKGWS	VIYSDGRRTQYIDSVK	GRAAGTFDS	nd / 1.53 / nd / 1.74 / nd / nd	0 of 18
GFTLNEYGIQ	VIYSDGRRTFYGDSGK	GRAAVTFDQ	nd / nd / nd / nd / nd / nd	0 of 18
LFTLNQYGIS	VIYSDGRRTFYSDSVK	GRAAGFFDS	nd / nd / nd / nd / nd / nd	1 of 18 (0.60)
GFTLNDYGIS	VIYSDGGRTRYGDSVK	GRAALTFIS	nd / nd / nd / nd / nd / nd	0 of 18
GFDLNSYGIG	VIYSDGRRTFYGDSVK	GRAAGWFNS	nd / nd / nd / nd / 3.26 / nd	0 of 18
GFTLDSYGIS	VIYSDGRTTFYGDSVK	GRAAGTALS	nd / nd / nd / nd / nd / nd	0 of 18
GFTLNDYGIS	VIYSDGRRTFYGDSVK	RRMALVWIS	nd / 0.46 / nd / nd / 1.21 / 1.35	0 of 18
GFTLDEYGIS	VIYADGRRTFYTDSVK	GRFAGTFDS	-0.54 / -0.48 / -0.52 / -0.61 / -0.57 / -0.36	0 of 18
GFTLNDYGDS	VIYSDGRRTTYGDSVK	GRAALTFIS	nd / nd / nd / nd / nd / nd	0 of 18
GFTLNDYGIA	VIYSDGRRTQYIFSVK	GRAATTFDS	nd / nd / nd / nd / nd / nd	0 of 18
GFTLNEYGTS	VIYSDGRRTFYGDSVK	GRAAVTFDQ	nd / nd / nd / nd / nd / nd	0 of 18
GFDLNRYGIS	VIYSDERRTFYGDPVK	GRAAGWFNS	nd / nd / nd / nd / nd / nd	0 of 18
GFTLNEYHIA	VIYSDGRRTFYTDSVK	GRFAGTFDS	nd / nd / nd / nd / nd / nd	0 of 18
GFTLNSYGRS	VYYADGRRTFYGDSVK	GRAAGTNKC	nd / nd / nd / nd / nd / nd	0 of 18
GFTLNDYGIS	VIYSDGRRFQYIDSVK	GRAAGTFDS	nd / nd / nd / nd / nd / nd	0 of 18
GFDLNSYGIS	VIYSDGRRTPYGDSVK	GRAAGWFNS	nd / nd / nd / nd / nd / nd	0 of 18
GFTLNSYGIS	VIYSDGRRTFYDDSVK	GQLAHTFDS	nd / nd / nd / nd / nd / nd	0 of 18
GFTLDSYGIS	VIYSDGRVTFYGDSVK	GRAAGTALY	nd / nd / nd / nd / nd / nd	0 of 18
GFTLNDYGIS	VIYSDGRRTFYGDSVK	GRAALTFIG	nd / nd / nd / nd / nd / nd	0 of 18
FFTLNEYGIS	VIYADGRRTFYGDSVK	GRAAGTNKS	nd / nd / nd / nd / nd / nd	0 of 18
GFTLNEYGIS	VIYSDGRRTFYGDSVK	SRAAVTFDQ	nd / nd / nd / nd / nd / nd	0 of 18
GFTLNQYGIS	VIYSLGRRSFYSDSVK	GRAAGFFDS	nd / nd / nd / nd / nd / nd	0 of 18
GFTLNDYGIS	VIYSDGLRTFYGDSVK	GYAALTFIS	nd / nd / nd / nd / nd / nd	1 of 18 (0.63)
GFTLNSYLIS	VIYSDGRRTFYSDSVK	GRAGGTFDS	nd / nd / 1.38 / 1.90 / 1.15 / 1.33	0 of 18
GFDLNSYEIS	VIFSGGRRTPYGDSVK	GRAAGWFNS	nd / nd / nd / nd / nd / nd	0 of 18
GFTLNDYGIS	VLYSDHRRTFYGDSVK	GRAALTFIS	nd / nd / nd / nd / nd / nd	0 of 18
GFTLNSYGIS	VIYSDGVRTFYSDSVK	GRAGGTFYA	nd / nd / nd / nd / nd / nd	0 of 18
GFTLRQVGIT	VIYSDGRRTRYSDSVK	GRPAGFYDF	nd / nd / nd / nd / nd / nd	0 of 18
GFTLNDYGIS	VIYSDGFRTQYMDSVK	GRAANTIDS	nd / nd / 2.92 / nd / nd / nd	0 of 18
GFTLNDYGIS	VIQSDGRRTFYGDSVK	GRAPLTFWS	nd / nd / nd / nd / nd / nd	1 of 18 (1.27)
GFTLNAYGIY	VIRSDGRRTFYDDSVK	GQLAGTFDS	nd / nd / nd / nd / nd / nd	0 of 18
GFTLNDYGIS	VIYCDGRRTFYGDSVK	GRAALTFIS	nd / nd / nd / nd / nd / nd	0 of 18
GFGLNSYRIS	VIYADGRRTFYGDSVK	GRAAGTNKS	nd / nd / nd / nd / nd / nd	0 of 18
GMTLNKYGIS	VIYSDGRRTFYGDSVK	VRAALTFIS	nd / nd / nd / nd / nd / nd	1 of 18 (1.35)
GFTLNDYGTS	VIYSDGRRTQYIDSNK	GRAAGTFDS	nd / nd / nd / nd / nd / nd	0 of 18
GFTLNQYGIS	VIYSDGRRTDKSDSVK	GQDAGFFDS	nd / nd / nd / nd / nd / nd	0 of 18
GFTLNDCGIS	VIYSDGDRTQYIDSVK	GRAAGTFDS	2.40 / nd / nd / nd / nd / nd	2 of 18 (3.82)
GFTLNDYGIS	VIYSDGRRTFYRDSVK	GRAALTFIS	nd / nd / nd / nd / nd / nd	0 of 18
GFTLNEYGIS	VIYSDGRRTFYEDDVK	GRFAHTFDS	nd / nd / nd / nd / nd / nd	0 of 18
GFTLDSYGIS	VIYSHGRRTFYGDSVK	GRAAGTALS	nd / nd / nd / nd / nd / nd	0 of 18
GFTLNEYGIS	VIYSDGRRTFYTDSVK	GRFAGTPDS	nd / nd / nd / nd / nd / nd	0 of 18
GFDLNGYGIS	VIYSDGRRTFAGDSVK	GRAVGWFNS	nd / nd / nd / nd / nd / nd	0 of 18
GFTLDSYGIS	VIYSDGRRCFYGDSVK	GRAAGTALS	nd / nd / nd / nd / nd / nd	1 of 18 (1.92)
GFTLNSYGIR	VIYSDGRRTFYSDSVK	GRAGGTFDS	nd / nd / nd / nd / nd / nd	0 of 18
GFSLNCYGIS	VIYSDGRRTFYDDSVK	GRFAGTFDS	nd / 1.04 / 0.85 / 2.07 / nd / 1.97	0 of 18

The first 7 entries again:

| CDR-H1 | CDR-H2 | CDR-H3 | log10 Kd (nM) by replicate | signal with controls |
|---|---|---|---|---|
| GFTLNDKGWS | VIYSDGRRTQYIDSVK | GRAAGTFDS | nd / 1.53 / nd / 1.74 / nd / nd | 0 of 18 |
| GFTLNEYGIQ | VIYSDGRRTFYGDSGK | GRAAVTFDQ | nd / nd / nd / nd / nd / nd | 0 of 18 |
| LFTLNQYGIS | VIYSDGRRTFYSDSVK | GRAAGFFDS | nd / nd / nd / nd / nd / nd | 1 of 18 (0.60) |
| GFTLNDYGIS | VIYSDGGRTRYGDSVK | GRAALTFIS | nd / nd / nd / nd / nd / nd | 0 of 18 |
| GFDLNSYGIG | VIYSDGRRTFYGDSVK | GRAAGWFNS | nd / nd / nd / nd / 3.26 / nd | 0 of 18 |
| GFTLDSYGIS | VIYSDGRTTFYGDSVK | GRAAGTALS | nd / nd / nd / nd / nd / nd | 0 of 18 |
| GFTLNDYGIS | VIYSDGRRTFYGDSVK | RRMALVWIS | nd / 0.46 / nd / nd / 1.21 / 1.35 | 0 of 18 |

The parent sequence was in this pool as ten entries: three were never detected, three once, and four in most replicates, with averages from 0.34 to 2.37.
The range of this assay differs from that of the first round, and the authors advise against merging the two.
Three control strains display no target. For all heavy chain designs, 1% of the pairings with them gave a signal, with a median of 2.08 and one signal in twenty below 0.84, so weak values seen in few replicates may be background. Also given: how often the same scFv was detected with the empty control strains, with their mean in brackets.
The authors' rule: three or more of the six replicates give a measured affinity, fewer mean a poor binder.

Source: Li et al. 2023 (doi:10.1038/s41467-023-39022-2), MIT Lincoln Laboratory and A-Alpha Bio; data file from the FLAb repository.